Experiment [1] has as its target Histone deacetylase. It counts as cell-based, Homo sapiens. The following applies: hela.
Experiment [2] addresses Histone deacetylase. It counts as cell-based, Homo sapiens. The following applies: hela. This is another data set of the same source.
In the next experiment the target is Histone deacetylase 1 (Homo sapiens, UniProt Q13547).
The next experiment addresses Histone deacetylase 3 (Homo sapiens, UniProt O15379).
In experiment [3] the target is T1, Protein deacetylase HDAC6 (Homo sapiens, UniProt Q9UBN7).
T1 sequence (Q9UBN7 whole entry): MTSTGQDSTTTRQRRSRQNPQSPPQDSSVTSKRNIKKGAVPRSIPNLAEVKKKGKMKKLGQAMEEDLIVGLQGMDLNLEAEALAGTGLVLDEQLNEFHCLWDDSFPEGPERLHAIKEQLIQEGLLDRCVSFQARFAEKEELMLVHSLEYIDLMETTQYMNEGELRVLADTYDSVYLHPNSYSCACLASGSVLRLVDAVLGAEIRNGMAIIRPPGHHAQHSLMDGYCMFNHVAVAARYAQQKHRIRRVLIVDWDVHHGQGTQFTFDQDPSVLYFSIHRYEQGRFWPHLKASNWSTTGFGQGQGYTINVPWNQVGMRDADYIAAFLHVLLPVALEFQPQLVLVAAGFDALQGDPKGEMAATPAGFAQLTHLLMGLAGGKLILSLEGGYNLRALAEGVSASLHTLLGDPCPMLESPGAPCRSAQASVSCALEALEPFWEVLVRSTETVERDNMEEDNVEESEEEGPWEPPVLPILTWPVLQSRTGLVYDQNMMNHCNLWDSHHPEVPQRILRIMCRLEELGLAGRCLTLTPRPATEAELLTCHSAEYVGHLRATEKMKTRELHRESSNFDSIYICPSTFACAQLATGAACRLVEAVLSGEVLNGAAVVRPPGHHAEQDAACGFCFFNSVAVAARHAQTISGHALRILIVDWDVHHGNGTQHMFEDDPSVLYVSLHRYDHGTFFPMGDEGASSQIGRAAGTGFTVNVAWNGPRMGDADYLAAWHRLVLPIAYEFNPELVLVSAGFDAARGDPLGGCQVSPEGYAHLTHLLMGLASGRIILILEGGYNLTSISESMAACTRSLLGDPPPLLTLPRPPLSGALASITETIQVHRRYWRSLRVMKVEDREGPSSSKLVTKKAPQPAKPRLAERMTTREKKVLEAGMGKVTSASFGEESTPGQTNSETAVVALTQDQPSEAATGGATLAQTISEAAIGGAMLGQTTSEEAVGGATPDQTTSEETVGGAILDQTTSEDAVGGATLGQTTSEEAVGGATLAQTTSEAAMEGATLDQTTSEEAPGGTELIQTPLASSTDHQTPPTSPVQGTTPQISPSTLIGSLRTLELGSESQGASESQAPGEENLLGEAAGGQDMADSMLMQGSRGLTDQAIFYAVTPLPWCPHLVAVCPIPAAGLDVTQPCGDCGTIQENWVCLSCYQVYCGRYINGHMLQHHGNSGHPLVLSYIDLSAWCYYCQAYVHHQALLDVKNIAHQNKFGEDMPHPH

For the compound `CC(C)C[C@H]1CC(=O)N[C@@H](C)C(=O)N[C@@H](CCCCCC(=O)O)C(=O)N[C@@H](Cc2c[nH]c3ccccc23)C(=O)N1`, the IC50 against Histone deacetylase [1] is 324 nM; against Histone deacetylase [2], 630 nM.

As to `CC(C)C[C@H]1CC(=O)NC(C)(C)C(=O)N[C@@H](CCCCCC(=O)O)C(=O)N[C@@H](Cc2cccc3ccccc23)C(=O)N1`, the IC50 worked out at 136 nM on Histone deacetylase 1, 500 nM on Histone deacetylase [1], 970 nM at Histone deacetylase 3 and 7000 nM in experiment [3].

The values are drawn from ChEMBL document CHEMBL1156016, “Discovery of potent and selective histone deacetylase inhibitors via focused combinatorial libraries of cyclic alpha3beta-tetrapeptides” (J Med Chem, 2009).
